Results published in ChEMBL document CHEMBL4024719, “Recent progress in the identification of selective butyrylcholinesterase inhibitors for Alzheimer's disease” (Eur J Med Chem, 2017).

Species: Homo sapiens
Assay: Selectivity ratio of IC50 for AChE (unknown origin) to IC50 for BuChE (unknown origin)

Structure (SMILES): CN(C)C(=O)Oc1cc(OC(=O)N(C)C)cc(C(O)CNC(C)(C)C)c1 (stereo unspecified)
- Ratio IC50: 10000
